# Measured values taken from ChEMBL document CHEMBL1126629 (J Med Chem, 1993).
# The chains behind the UniProt entries cited, without tags or fusion partners.
# UniProt P31645, whole entry: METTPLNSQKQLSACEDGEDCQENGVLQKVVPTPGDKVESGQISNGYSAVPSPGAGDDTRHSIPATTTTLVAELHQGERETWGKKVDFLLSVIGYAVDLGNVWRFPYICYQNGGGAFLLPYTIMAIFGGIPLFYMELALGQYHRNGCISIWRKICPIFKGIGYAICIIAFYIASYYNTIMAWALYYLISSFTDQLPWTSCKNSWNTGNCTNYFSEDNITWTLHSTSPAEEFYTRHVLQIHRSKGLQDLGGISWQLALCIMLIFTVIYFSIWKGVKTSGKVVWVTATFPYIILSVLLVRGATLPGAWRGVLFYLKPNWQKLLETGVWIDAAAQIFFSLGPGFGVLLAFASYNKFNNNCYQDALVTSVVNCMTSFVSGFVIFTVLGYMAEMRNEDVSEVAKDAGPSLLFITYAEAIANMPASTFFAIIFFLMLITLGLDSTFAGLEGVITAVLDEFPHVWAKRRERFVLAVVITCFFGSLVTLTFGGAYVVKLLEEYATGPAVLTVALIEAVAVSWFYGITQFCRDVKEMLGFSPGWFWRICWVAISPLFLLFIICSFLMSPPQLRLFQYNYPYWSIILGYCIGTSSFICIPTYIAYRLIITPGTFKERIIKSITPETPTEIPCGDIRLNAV
# Biological target: Sodium-dependent serotonin transporter (Homo sapiens, UniProt P31645)
# Assay: Ability to inhibit [3H]citalopram binding to serotonin transporter in cynomolgus monkey striatum
# Assay type: tissue-based, Cercopithecidae
# Conditions: target entry is the homologue from another species
compound,measurement,value
COC(=O)C1C(c2ccc(Cl)cc2)CC2CCC1N2C (stereo unspecified),IC50,5.87 nM
